In experiment [1] the test system is EMT6. Briefly: Ability to reduce surviving fraction of EMT6 cells to 10% when exposed to N2 for 3 hrs. The following applies: Mus musculus.
The test system of experiment [2] is Mus musculus. Nature of the experiment: In vivo toxicity against C3H/HeN cell line in mice expressed as maximal tolerated dose.
Experiment [3] relates to Mus musculus. Briefly: in vivo activity against aerobic and hypoxic cells in RIF-1 tumors when administered at a dose of 56.2 umol/kg in mice after 5 min of exposure to radiation.
The test system of experiment [4] is EMT6. Nature of the experiment: Hypoxic cytotoxicity ratio was determined. The note with it: Mus musculus.
Experiment [5] concerns Mus musculus. Briefly: in vivo activity against aerobic and hypoxic cells in RIF-1 tumors when administered at a dose of 56.2 umol/kg in mice 30 min before exposure to radiation.
In experiment [6] the test system is Mus musculus. Briefly: in vivo activity against aerobic and hypoxic cells in RIF-1 tumors when administered at a dose of 56.2 umol/kg in mice.
The subject of experiment [7] is EMT6. Nature of the experiment: Ability to reduce surviving fraction of EMT6 cells to 10% when exposed to air for 3 hrs. The following applies: Mus musculus.
Experiment [8] concerns Mus musculus. Briefly: in vivo activity against aerobic and hypoxic cells in RIF-1 tumors when administered at a dose of 100 umol/kg in mice 30 min before exposure to radiation.
For experiment [9], the system named is EMT6. Briefly: Ability to reduce cell density of SKOV3 cells to 50% after 4 hr of exposure to air. The following applies: Mus musculus.
Experiment [10] deals with Mus musculus. Nature of the experiment: in vivo activity against aerobic and hypoxic cells in RIF-1 tumors when administered at a dose of 100 umol/kg in mice after 5 min of exposure to radiation.
Experiment [11] has as its system Mus musculus. Briefly: in vivo activity against aerobic and hypoxic cells in RIF-1 tumors when administered at a dose of 100 umol/kg in mice.
For experiment [12], the system named is Mus musculus. Briefly: in vivo activity against aerobic and hypoxic cells in RIF-1 tumors when administered at a dose of 31.6 umol/kg in mice.
Experiment [13] has as its system Mus musculus. Briefly: in vivo activity against aerobic and hypoxic cells in RIF-1 tumors when administered at a dose of 31.6 umol/kg in mice 30 min before exposure to radiation.
Experiment [14] concerns Mus musculus. Briefly: in vivo activity against aerobic and hypoxic cells in RIF-1 tumors when administered at a dose of 31.6 umol/kg in mice after 5 min of exposure to radiation.

Turning to `C[N+](CCCl)(CCCl)Cc1sccc1[N+](=O)[O-]`, the C10 worked out at 6 µM in the experiment with EMT6 [1], 6 µM in the experiment on EMT6 [4] and 30 µM with EMT6 [7]. The same compound showed an MTD in the experiment on Mus musculus [2] of 56.2 µM/kg. Besides, the Log cell kill with Mus musculus [3] is 0.11; in the experiment with Mus musculus [5] it was 0.16; in the experiment with Mus musculus [6], 0.23.

With `C[N+](CCCl)(CCCl)Cc1ccccc1[N+](=O)[O-]`, the C10 came to 66 µM in the experiment on EMT6 [1], 400 µM with EMT6 [4] and 12300 µM in the experiment on EMT6 [9]. Also, in the experiment on Mus musculus [2], the MTD is 100 µM/kg. The Log cell kill came to 0.01 in the experiment with Mus musculus [8], 0.92 in the experiment with Mus musculus [10] and 0.24 with Mus musculus [11].

Consider `Cn1ncc(C[N+](C)(CCCl)CCCl)c1[N+](=O)[O-]`, for which the C10 amounted to 2.2 µM with EMT6 [1], 2500 µM with EMT6 [4] and 3450 µM in the experiment on EMT6 [7]. The same compound gave an MTD in the experiment on Mus musculus [2] of 31.6 µM/kg. The Log cell kill in the experiment with Mus musculus [12] turned out to be 0.04; with Mus musculus [13], 0.16; in the experiment on Mus musculus [14] it was 0.17.

`Cn1c(C[N+](C)(CCCl)CCCl)ccc1[N+](=O)[O-]`: in the experiment with Mus musculus [2], the MTD is 42.1 µM/kg.

With `C[N+](CCCl)(CCCl)Cc1ccc([N+](=O)[O-])s1`, the C10 worked out at 1.3 µM in the experiment with EMT6 [1], 16 µM with EMT6 [4] and 22 µM with EMT6 [7]. In addition, the MTD in the experiment with Mus musculus [2] was found to be 56.2 µM/kg. Moreover, the Log cell kill in the experiment with Mus musculus [3] is 0.55; with Mus musculus [5], 0.16; with Mus musculus [6], 0.54.

For the compound `Cn1cnc([N+](=O)[O-])c1C[N+](C)(CCCl)CCCl`, the C10 in the experiment on EMT6 [1] came to 1.2 µM; with EMT6 [4], 46 µM; with EMT6 [7], 57 µM. The same compound had an MTD in the experiment with Mus musculus [2] of 100 µM/kg. Also, the Log cell kill in the experiment on Mus musculus [8] came out at 0.39; in the experiment with Mus musculus [10], 1.01; with Mus musculus [11], 0.38.

`Cn1ncc([N+](=O)[O-])c1C[N+](C)(CCCl)CCCl` showed an MTD in the experiment with Mus musculus [2] of 23.7 µM/kg.

In the case of `Cn1ccc(C[N+](C)(CCCl)CCCl)c1[N+](=O)[O-]`, the MTD in the experiment with Mus musculus [2] was 56.2 µM/kg.

Values taken from ChEMBL document CHEMBL1134417, “Hypoxia-selective antitumor agents. 16. Nitroarylmethyl quaternary salts as bioreductive prodrugs of the alkylating agent mechlorethamine” (2001).
